In ChEMBL document CHEMBL1275511, “Molecular and biochemical characterization of SHV-56, a novel inhibitor-resistant beta-lactamase from Klebsiella pneumoniae” (Antimicrob Agents Chemother, 2008) one finds Km, kcat and kcat/Km data, which are given here for two molecules.

Common to all, as to conditions: JM109
In series [1] the test system is Escherichia coli. Nature of the series: Activity of Escherichia coli Inhibitor-resistant beta-lactamase SHV-56.
The subject of series [2] is Escherichia coli. The series is described as follows: Ratio of Kcat to Km for Escherichia coli Inhibitor-resistant beta-lactamase SHV-56.
Substrate in series [3]: CC1(C)S[C@@H]2[C@H](NC(=O)Cc3ccccc3)C(=O)N2[C@H]1C(=O)O
Nature of the series: (§1) Activity of Escherichia coli beta-lactamase SHV-11.

Substrate in series [4]: CC1(C)S[C@@H]2[C@H](NC(=O)[C@H](C(=O)O)c3ccsc3)C(=O)N2[C@H]1C(=O)O
The series is described as §1.

For orientation: Km means the substrate concentration at which the rate is half of its maximum. By kcat is commonly meant the maximal rate divided by the concentration of active sites. As usually defined, the kcat/Km is the turnover number divided by the Michaelis constant. Turning to `CC1(C)S[C@@H]2[C@H](NC(=O)Cc3ccccc3)C(=O)N2[C@H]1C(=O)O`, in the series on Escherichia coli [1], the Km came to 40 µM and the kcat was determined as 60 s⁻¹. Moreover, the kcat/Km in the series with Escherichia coli [2] is 1.5e+06 M⁻¹ s⁻¹.

B1: Beta-lactamase SHV-11 (Escherichia coli), Q7X575 (protein)
chain: MRYIRLCIISLLATLPLAVHASPQPLEQIKQSESQLSGRVGMIEMDLASGRTLTAWRADERFPMMSTFKVVLCGAVLARVDAGDEQLERKIHYRQQDLVDYSPVSEKHLADGMTVGELCAAAITMSDNSAANLLLATVGGPAGLTAFLRQIGDNVTRLDRWETELNEALPGDARDTTTPASMAATLRKLLTSQRLSARSQRQLLQWMVDDRVAGPLIRSVLPAGWFIADKTGAGERGARGIVALLGPNNKAERIVVIYLRDTPASMAERNQQIAGIGAALIEHWQR
For the molecule B1, in series [3], the Km was 20 µM and the catalytic constant (kcat) turned out to be 40 s⁻¹. For the same molecule, in series [4], the kcat amounted to 2 s⁻¹.
